Ab-14 light chain CDR variants: yeast mating affinities

The target is the same throughout: PDVDLGDISGINAS, from the HR2 region of SARS-CoV-2 spike.

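Phage display of a naive human antibody library on the peptide gave the parent. Designed CDR sequences, proposed from the first random library and measured here. Their group label is 14L_En_Gen (En: ensemble of fine-tuned language models; Gen: genetic algorithm). AlphaSeq pools MATa yeast showing the antibodies with MATalpha yeast showing the peptide. Pairs that bind mate more often; barcode pairs of the diploids are counted by sequencing. Scores were corrected for input abundance and mapped to Kd with protein pairs of known affinity run in the same pool. Each pool was mated in six replicate cultures.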

Each scFv is VH, the linker GGGGSGGGGSGGGGS, VL, as in the parent Ab-14, and differs from it in the CDRs of the light chain only.
VH: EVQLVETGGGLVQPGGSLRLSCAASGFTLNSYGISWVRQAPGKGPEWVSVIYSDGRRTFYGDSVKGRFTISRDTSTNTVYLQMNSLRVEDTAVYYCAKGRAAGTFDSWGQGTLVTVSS
VL: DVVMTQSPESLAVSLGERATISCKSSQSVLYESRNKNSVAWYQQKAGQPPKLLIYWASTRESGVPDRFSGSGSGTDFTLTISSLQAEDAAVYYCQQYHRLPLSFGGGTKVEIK

The parent's light chain CDRs are KSSQSVLYESRNKNSVA, WASTRES, QQYHRLPLS; each variant's own CDRs replace them letter for letter. Affinities are written as log10 Kd with Kd in nM; a lower number is a better binder. Averages over replicates are reported, and they cover detected replicates only. "ND" means that the variant was in the library but no mating with the target was seen in that replicate; the authors take this as a sign of poor binding, and no number exists. Values of this round are not directly comparable with the first-round values of the same sequences.

| CDR-L1 | CDR-L2 | CDR-L3 | replicates, log10 nM | log10 Kd (nM), mean | control signals |
|---|---|---|---|---|---|
| KITATMRFEQKNSNNIA | EVSTRSK | QQYVRLPLA | 0.74 / -0.05 / 0.56 / 0.07 / 0.23 / -0.35 | 0.20 | 0/18 |
| KVSEFMKGLMMKTDSIA | DNVTRNN | QQYDRLPLS | 1.44 / 0.85 / 1.38 / 0.87 / 1.21 / 0.91 | 1.11 | 2/18 (2.82) |
| TISQVMNTLTRHGNNVA | DLQEREQ | QQYFRLPLS | 0.36 / 0.84 / 0.78 / 0.56 / 1.25 / 0.97 | 0.79 | 1/18 (2.57) |
| KISQMQRVGATHSNSIA | EEVTRAK | QQYHRLPLS | 0.22 / 0.21 / 0.37 / 0.12 / 0.12 / 0.42 | 0.25 | 2/18 (1.63) |
| MISQVMNTLTRNGNNVA | DLTEREK | QQYFRLPLT | ND / 0.91 / 1.42 / ND / ND / 1.30 | 1.21 | 0/18 |
| HMSAVTMMGSRHRNSVA | QMTTREN | QQYDRLPLM | 1.54 / 0.82 / 1.01 / 1.86 / 1.34 / 1.36 | 1.32 | 0/18 |
| HITYGMYVAGRHSSSIA | QAETRAK | QQYDRLPLA | 1.65 / 1.16 / 1.68 / 1.66 / 1.43 / ND | 1.52 | 0/18 |
| IVSQLMLWGLHASNSIA | EAVTRYN | QQYDRLPLF | 2.11 / ND / 2.44 / 1.53 / ND / ND | 2.03 | 1/18 (2.22) |
| MISQLYNMGSFAINSVA | QASQRNE | QQYDRLPLL | 0.87 / 0.90 / 0.88 / 0.51 / 0.45 / 1.01 | 0.77 | 0/18 |
| MLYGLSMSMSKNKNNVA | EMTTREK | QQYDRLPLV | 0.67 / 0.58 / 0.86 / 0.82 / 0.81 / 0.67 | 0.74 | 0/18 |
| IVSQLMLWGYKAKNSIA | EAELRLN | QQYDRLPLF | ND / ND / ND / ND / ND / 2.33 | 2.33 | 0/18 |
| KLTNITGTEKVIGNNVA | EMETREK | QQYNRLPLS | 1.28 / 1.28 / 1.03 / 0.74 / 0.93 / 0.97 | 1.04 | 0/18 |
| KLSMITGHMSTQKNNVA | EMETREN | QQYNRLPLA | 1.69 / 0.94 / 1.61 / 0.70 / 1.12 / 1.32 | 1.23 | 0/18 |
| SISGFMKSLSAHINSVA | DMTNREE | QQYERLPLS | 1.14 / 0.75 / 0.64 / 0.58 / 0.93 / 1.05 | 0.85 | 1/18 (3.24) |
| TISQMTSWMSNKKNNVA | EVTTREA | QQYDRLPLM | ND / ND / 2.88 / 3.28 / 2.30 / ND | 2.82 | 0/18 |
| MLSEVLHMLGIQKNSIA | DLVLRAN | QQYHRLPLS | ND / ND / ND / ND / ND / ND | ND | 0/18 |
| KISQMVRVGATHNNSIA | EEQTRAK | QQYHRLPLA | 1.26 / 0.81 / 1.19 / 0.98 / 0.69 / 0.82 | 0.96 | 1/18 (2.39) |
| MISQVMNTLSRQGNNVA | DLAERED | QQYFRLPLS | 1.80 / 2.34 / ND / 1.20 / 1.77 / 1.42 | 1.71 | 0/18 |
| IVSQLMLWGLHAKNSIA | EAVMRLN | QQYDRLPLE | ND / 1.49 / ND / ND / ND / ND | 1.49 | 1/18 (1.11) |
| KLSGIMRMESKNKSNIA | EVNERSE | QQYDRLPLS | 0.26 / 0.09 / -0.09 / -0.10 / 0.04 / 0.27 | 0.08 | 0/18 |
| KISMVMENQLKNRNSVA | ELVTRVN | QQYNRLPLS | 0.87 / 0.91 / 0.53 / 0.31 / 0.79 / 0.82 | 0.70 | 1/18 (1.92) |
| MISQVMNTLTRTGNNVA | DLAEREQ | QQYFRLPLS | 2.10 / ND / 1.20 / 1.13 / ND / ND | 1.48 | 0/18 |
| HMSMLTLQGMRHTNSVA | QMTTREN | QQYDRLPLS | 0.89 / 1.84 / 1.73 / 0.98 / 1.51 / 1.40 | 1.39 | 0/18 |
| MISEVMNTLTRHGNNVA | DLAERED | QQYFRLPLS | 1.58 / 1.73 / 1.30 / 0.58 / 1.70 / 1.41 | 1.38 | 0/18 |
| MIYGAQRELGLAANSIA | DNVTRYD | QQYERLPLS | ND / ND / ND / ND / ND / ND | ND | 0/18 |
| KIGDVLNELMHKKNNVA | DLVTREN | QQYFRLPLS | 0.57 / -0.18 / 0.07 / 1.01 / -0.65 / 0.01 | 0.14 | 0/18 |
| KISQMVRVGSTVSNSIA | EEATRAK | QQYHRLPLF | 0.69 / 1.25 / ND / 0.45 / 1.96 / 1.27 | 1.12 | 0/18 |
| MISQLMNMGSFAINSVA | QASIRNS | QQYDRLPLI | 1.31 / ND / ND / ND / ND / ND | 1.31 | 0/18 |
| MISQNIYGMYRMRDNVA | HASMRED | QCYDRLPLS | 1.74 / 0.79 / 1.07 / 0.32 / 0.80 / 1.10 | 0.97 | 0/18 |
| MISQLINMGSFAINSVA | QASIRNA | QQYDRLPLA | ND / ND / 1.19 / 2.12 / 0.88 / 1.81 | 1.50 | 0/18 |
| HMSMLTLGGMRHKNSVA | QMTTREN | QQYDRLPLA | 1.45 / 1.19 / 0.74 / 1.08 / 1.29 / 1.14 | 1.15 | 1/18 (2.49) |
| MMSQVTGMGQHHRNNVA | QTSTREP | QQYDRLPLI | 1.10 / 1.07 / 1.09 / 0.93 / 1.16 / 1.23 | 1.10 | 3/18 (2.99) |
| IVSQLMLWGMHAKNSIA | EAVTRLN | QQYDRLPLI | ND / ND / ND / ND / ND / ND | ND | 0/18 |
| HLGLSTMLQETVRNSVA | NNSTRED | QQYDRLPLS | 3.05 / ND / 2.91 / 3.13 / 2.18 / 3.37 | 2.93 | 0/18 |
| HITYGMYVSGRYISNIA | QAETRAK | QQYDRLPLM | 0.18 / 0.09 / -0.02 / -0.16 / -0.43 / -0.06 | -0.07 | 1/18 (1.32) |
| IVSQLMLWGMHVKNSIA | EAVTRVN | QQYDRLPLI | ND / 3.12 / ND / ND / ND / ND | 3.12 | 0/18 |
| KLTNVTGTEKVMGNNVA | EMETRER | QQYNRLPLA | 0.89 / 1.41 / 1.14 / 2.17 / 1.04 / 2.05 | 1.45 | 0/18 |
| HMSMLTMMGMRHRNSVA | QMTTREN | QQYDRLPLM | ND / 1.91 / ND / 2.08 / ND / 2.69 | 2.23 | 1/18 (2.62) |
| MISQLINMGQFAINSVA | QASIRCN | QQYDRLPLT | ND / ND / ND / ND / 2.87 / 2.64 | 2.75 | 0/18 |
| IVSQLMIWGMHVKNSIA | EAEQRLN | QQYDRLPLF | ND / ND / ND / ND / -0.63 / ND | -0.63 | 1/18 (-0.62) |
| SISGFMKSLSAHINSVA | DMTNRED | QQYDRLPLS | 0.76 / 0.73 / 0.52 / 0.70 / 0.81 / 0.91 | 0.74 | 1/18 (2.22) |
| KLSQITGHSLMSKNNVA | EMVTREN | QQYDRLPLS | 1.01 / 1.51 / 1.02 / 0.42 / 0.94 / 0.53 | 0.90 | 0/18 |
| IVSQLMIWGMHHKNSIA | EAQTRIN | QQYDRLPLF | ND / ND / ND / ND / ND / ND | ND | 0/18 |
| KITATMRFEQKASNNIA | EVTTRSK | QQYYRLPLS | 0.58 / 0.50 / 0.43 / 0.52 / 0.47 / 0.51 | 0.50 | 1/18 (2.28) |
| MVNGITDHLSKNTNSVA | ETETREE | QQYDRLPLS | 0.92 / 0.79 / 0.60 / 0.78 / 0.96 / 1.02 | 0.85 | 1/18 (3.04) |
| KVSEFMRGLMMRKDSIA | DNETRSN | QQYDRLPLS | ND / 2.65 / 1.28 / 2.20 / 2.23 / 2.26 | 2.12 | 0/18 |
| HLSHMSGVESVKHNSVA | ENSTREN | QQYDRLPLS | 1.50 / 2.10 / 2.24 / ND / 1.91 / 2.71 | 2.09 | 2/18 (2.24) |
| TISQLHNMGTFAINSVA | QAEIRNE | QQYDRLPLI | 0.98 / 0.94 / 0.98 / 0.93 / 1.23 / 1.20 | 1.04 | 0/18 |
| SLYEVSEELSGKKHSVA | DNSTRGD | QQYFRLPLD | 1.90 / 2.39 / 1.90 / 1.98 / 2.29 / 3.10 | 2.26 | 1/18 (3.43) |

The opening 7 entries, copied out:

| CDR-L1 | CDR-L2 | CDR-L3 | replicates, log10 nM | log10 Kd (nM), mean | control signals |
|---|---|---|---|---|---|
| KITATMRFEQKNSNNIA | EVSTRSK | QQYVRLPLA | 0.74 / -0.05 / 0.56 / 0.07 / 0.23 / -0.35 | 0.20 | 0/18 |
| KVSEFMKGLMMKTDSIA | DNVTRNN | QQYDRLPLS | 1.44 / 0.85 / 1.38 / 0.87 / 1.21 / 0.91 | 1.11 | 2/18 (2.82) |
| TISQVMNTLTRHGNNVA | DLQEREQ | QQYFRLPLS | 0.36 / 0.84 / 0.78 / 0.56 / 1.25 / 0.97 | 0.79 | 1/18 (2.57) |
| KISQMQRVGATHSNSIA | EEVTRAK | QQYHRLPLS | 0.22 / 0.21 / 0.37 / 0.12 / 0.12 / 0.42 | 0.25 | 2/18 (1.63) |
| MISQVMNTLTRNGNNVA | DLTEREK | QQYFRLPLT | ND / 0.91 / 1.42 / ND / ND / 1.30 | 1.21 | 0/18 |
| HMSAVTMMGSRHRNSVA | QMTTREN | QQYDRLPLM | 1.54 / 0.82 / 1.01 / 1.86 / 1.34 / 1.36 | 1.32 | 0/18 |
| HITYGMYVAGRHSSSIA | QAETRAK | QQYDRLPLA | 1.65 / 1.16 / 1.68 / 1.66 / 1.43 / ND | 1.52 | 0/18 |

The authors averaged sequences with at least three values out of six and counted those with two or fewer as poor binders. Background: pairings of all light chain designs with three empty control strains gave a value in 4% of cases (median 2.64, 5th percentile 1.59). Values in that range, when seen in few replicates, are hard to tell from nonspecific mating. Also given: how often the same scFv was detected with the empty control strains, with their mean in brackets.

Values reported by Li et al. 2023, doi:10.1038/s41467-023-39022-2 (FLAb copy).